Experimental data: ChEMBL document CHEMBL4765247, “Novel mouse GABA uptake inhibitors with enhanced inhibitory activity toward mGAT3/4 and their effect on pain threshold in mice” (Eur J Med Chem, 2020)

Molecular target: T1, GABA transporter 4 (Mus musculus, UniProt P31650)
T1 sequence (P31650 whole entry): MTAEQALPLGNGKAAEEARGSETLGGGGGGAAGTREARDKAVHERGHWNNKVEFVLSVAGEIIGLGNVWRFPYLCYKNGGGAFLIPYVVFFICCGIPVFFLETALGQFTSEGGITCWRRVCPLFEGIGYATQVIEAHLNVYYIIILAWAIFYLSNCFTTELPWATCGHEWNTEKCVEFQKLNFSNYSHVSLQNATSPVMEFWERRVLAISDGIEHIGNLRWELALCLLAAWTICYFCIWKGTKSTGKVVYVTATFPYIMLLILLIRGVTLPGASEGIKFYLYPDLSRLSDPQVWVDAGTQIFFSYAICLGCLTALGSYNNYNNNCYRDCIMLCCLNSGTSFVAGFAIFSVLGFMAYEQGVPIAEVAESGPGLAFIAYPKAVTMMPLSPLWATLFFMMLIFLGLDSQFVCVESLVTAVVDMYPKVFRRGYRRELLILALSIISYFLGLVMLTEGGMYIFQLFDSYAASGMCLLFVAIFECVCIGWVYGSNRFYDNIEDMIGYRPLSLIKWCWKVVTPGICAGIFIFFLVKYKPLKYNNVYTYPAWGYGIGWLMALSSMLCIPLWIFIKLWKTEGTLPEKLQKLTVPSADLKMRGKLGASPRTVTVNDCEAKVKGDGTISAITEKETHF
Experiment: Inhibition of mouse GTA4 receptor

Molecule `NCCCC(=O)O` [GAMMA-AMINOBUTYRIC ACID] has an IC50 of 33.1 µM.
